# Experimental data: ChEMBL document CHEMBL2417547, “Cushing's syndrome: development of highly potent and selective CYP11B1 inhibitors of the (pyridylmethyl)pyridine type” (J Med Chem, 2013)
# Target: T1, Cytochrome P450 11B2, mitochondrial (Homo sapiens, UniProt P19099)
# T1 sequence (P19099 whole entry): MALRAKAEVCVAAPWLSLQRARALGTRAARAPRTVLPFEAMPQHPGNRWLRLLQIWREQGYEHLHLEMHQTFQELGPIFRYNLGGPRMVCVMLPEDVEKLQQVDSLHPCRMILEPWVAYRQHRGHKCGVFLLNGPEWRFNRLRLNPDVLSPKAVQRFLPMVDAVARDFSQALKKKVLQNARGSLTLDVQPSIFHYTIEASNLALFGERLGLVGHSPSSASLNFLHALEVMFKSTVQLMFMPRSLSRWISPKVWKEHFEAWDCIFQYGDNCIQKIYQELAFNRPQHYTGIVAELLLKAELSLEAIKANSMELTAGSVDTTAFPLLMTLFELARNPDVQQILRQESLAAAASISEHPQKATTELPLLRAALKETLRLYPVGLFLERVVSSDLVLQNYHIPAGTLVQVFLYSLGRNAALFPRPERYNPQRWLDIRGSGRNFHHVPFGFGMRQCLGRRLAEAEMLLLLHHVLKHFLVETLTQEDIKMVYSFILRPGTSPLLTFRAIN
# Assay: Inhibition of human CYP11B2 expressed in hamster V79MZh cells using [1,2-3H]-11-deoxycorticosterone as substrate
# Type: cell-based
# How it was run: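 V79MZh hamster fibroblasts expressing human CYP11B1 or CYP11B2 were incubated with [1,2-3H]-11-deoxycorticosterone (100 nM) plus inhibitor at a range of concentrations. […] The selectivity factor is IC50(CYP11B2)/IC50(CYP11B1).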
structure (smiles),measurement,value
CC(C)(C(=O)c1cccnc1)c1cccnc1 [METYRAPONE],pIC50,7.38

# pIC50: −log10 of the molar value.
